The term IC50 denotes the point on the concentration scale where inhibition reaches its midpoint.

Chains of the proteins cited; added tags and fusions are not shown.
UniProt Q15858, whole entry: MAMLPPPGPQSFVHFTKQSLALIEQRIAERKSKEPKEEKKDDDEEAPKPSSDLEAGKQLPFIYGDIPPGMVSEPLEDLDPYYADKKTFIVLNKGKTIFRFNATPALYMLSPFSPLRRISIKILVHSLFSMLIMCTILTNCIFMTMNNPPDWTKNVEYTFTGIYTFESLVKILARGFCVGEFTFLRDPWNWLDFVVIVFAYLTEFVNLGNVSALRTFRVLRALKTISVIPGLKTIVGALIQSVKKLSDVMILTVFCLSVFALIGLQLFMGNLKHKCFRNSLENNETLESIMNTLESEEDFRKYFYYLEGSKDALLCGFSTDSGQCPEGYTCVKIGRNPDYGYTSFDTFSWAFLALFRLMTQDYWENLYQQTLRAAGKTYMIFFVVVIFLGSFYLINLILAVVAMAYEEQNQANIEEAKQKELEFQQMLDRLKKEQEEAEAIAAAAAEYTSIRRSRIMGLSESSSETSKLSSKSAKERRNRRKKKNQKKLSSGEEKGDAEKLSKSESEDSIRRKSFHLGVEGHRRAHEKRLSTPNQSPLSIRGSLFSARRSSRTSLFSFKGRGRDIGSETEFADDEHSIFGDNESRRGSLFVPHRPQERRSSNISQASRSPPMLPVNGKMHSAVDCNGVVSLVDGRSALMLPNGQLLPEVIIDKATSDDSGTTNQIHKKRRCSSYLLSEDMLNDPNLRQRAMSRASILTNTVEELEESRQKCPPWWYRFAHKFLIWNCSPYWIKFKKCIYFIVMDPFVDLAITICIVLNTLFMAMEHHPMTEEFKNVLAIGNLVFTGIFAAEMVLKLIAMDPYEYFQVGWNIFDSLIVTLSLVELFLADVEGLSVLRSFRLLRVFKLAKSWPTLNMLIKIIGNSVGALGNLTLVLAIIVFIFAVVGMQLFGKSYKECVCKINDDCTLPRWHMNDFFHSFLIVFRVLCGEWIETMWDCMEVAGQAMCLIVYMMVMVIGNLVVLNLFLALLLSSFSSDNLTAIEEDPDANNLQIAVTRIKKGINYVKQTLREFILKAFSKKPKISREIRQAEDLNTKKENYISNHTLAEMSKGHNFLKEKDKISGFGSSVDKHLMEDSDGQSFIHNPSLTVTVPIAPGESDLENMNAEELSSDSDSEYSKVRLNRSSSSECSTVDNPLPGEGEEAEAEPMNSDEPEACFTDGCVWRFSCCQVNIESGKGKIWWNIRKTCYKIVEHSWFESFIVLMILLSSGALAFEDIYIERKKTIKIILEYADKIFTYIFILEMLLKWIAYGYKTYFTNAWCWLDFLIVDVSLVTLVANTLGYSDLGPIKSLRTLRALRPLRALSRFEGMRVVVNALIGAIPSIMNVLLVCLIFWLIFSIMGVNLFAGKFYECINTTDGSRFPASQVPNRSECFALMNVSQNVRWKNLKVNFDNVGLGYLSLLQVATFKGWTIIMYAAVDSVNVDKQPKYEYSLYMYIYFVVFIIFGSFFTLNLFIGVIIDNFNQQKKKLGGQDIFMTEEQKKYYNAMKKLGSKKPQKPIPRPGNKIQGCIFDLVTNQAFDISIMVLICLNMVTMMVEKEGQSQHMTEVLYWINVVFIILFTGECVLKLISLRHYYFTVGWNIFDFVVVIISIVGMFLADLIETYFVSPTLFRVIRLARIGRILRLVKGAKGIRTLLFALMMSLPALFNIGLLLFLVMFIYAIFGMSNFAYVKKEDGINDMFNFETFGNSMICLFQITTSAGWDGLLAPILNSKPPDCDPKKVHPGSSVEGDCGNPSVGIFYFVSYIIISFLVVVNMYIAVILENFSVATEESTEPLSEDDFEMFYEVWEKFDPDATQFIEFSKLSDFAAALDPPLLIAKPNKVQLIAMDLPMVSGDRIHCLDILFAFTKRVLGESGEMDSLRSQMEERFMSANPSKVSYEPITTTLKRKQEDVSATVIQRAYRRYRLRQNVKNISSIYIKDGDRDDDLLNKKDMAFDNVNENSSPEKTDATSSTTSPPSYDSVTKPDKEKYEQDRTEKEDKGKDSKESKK

This passage reports IC50 results from ChEMBL document CHEMBL3638545 (2015).

Assay [1] concerns the target T1, Sodium channel protein type 9 subunit alpha (Homo sapiens, UniProt Q15858). It counts as cell-based, HEK293.
Assay [2] addresses T1, Sodium channel protein type 9 subunit alpha. Nature of the assay: Radioligand Binding Assay: Radioligand Binding Studies: Saturation experiments. A representative compound of formula (I) was tritiated. Three tritiums were incorporated in place of methyl hydrogens to generate [3H]compound. Binding of this radioligand was preformed in 5 mL borosilicate glass test tubes at room temperature. Binding was initiated by adding membranes to increasing concentrations of [3H]compound in 100 mM NaCl, 20 mM Tris HCl, pH 7.4 buffer containing 0.01% w/v bovine serum albumin (BSA) for 18 h. Non-specific binding was determined in the presence of 1 uM unlabelled compound. After 18 h, the reactants were filtered through GF/C glass fiber filters presoaked in 0.5% w/v polyethylene imine. […] [3H]compound bound to filters was quantified by liquid scintillation counting.Competitive binding experiments.

On to `CS(=O)(=O)NC(=O)c1cc(Cl)c(NCC23CC4CC(CC(C4)C2)C3)cc1F`, for which the IC50 in assay [1] is 356 nM.
Take `COCCS(=O)(=O)NC(=O)c1cc(C2CC2)c(OCC2CCCC2)cc1F`: in assay [2], the 50% inhibitory concentration (IC50) is 100 nM.
As for `CC1(COc2cc(F)c(C(=O)NS(=O)(=O)C3CC3)cc2C2CC2)CCC(F)(F)CC1`, the values for the concentration for half-maximal inhibition (IC50) in assay [2] and in assay [1] were 4 nM and 10 nM, respectively.
